# Measured boiling point values of organic chemicals

From the experimental data distributed with OPERA 2.9.

The boiling point refers to atmospheric pressure (760 mmHg), by the definition of the set.
The databases behind each value are named after "via".

{"smiles": "C=COC(=O)C(CC)CCCC", "stereo": "stereo not given", "name": "Ethenyl 2-ethylhexanoate", "bp (°C)": "188.9", "via": "eChemPortal"}
{"smiles": "COC(=O)C(C)CCC(=O)N(C)C", "stereo": "stereo not given", "name": "Methyl 5-(dimethylamino)-2-methyl-5-oxopentanoate", "bp (°C)": "280", "via": "eChemPortal"}
{"smiles": "CCCCC(CC)COP(=O)(O)OCC(CC)CCCC", "stereo": "stereo not given", "name": "Bis(2-ethylhexyl) phosphate", "bp (°C)": "240", "via": "OFMPub"}
{"smiles": "CCCCCOc1ccc2c(oc3c(F)c(OCC)ccc32)c1F", "name": "3-Ethoxy-4,6-difluoro-7-pentyloxy-dibenzofurane", "bp (°C)": "370", "via": "eChemPortal"}
{"smiles": "CC/C=C\\CC(C)OC(=O)c1ccccc1O", "stereo": "stereo partly drawn", "name": "Benzoic acid, 2-hydroxy-, (3Z)-1-methyl-3-hexen-1-yl ester", "bp (°C)": "282.4", "via": "eChemPortal"}
{"smiles": "CO[Si](C)(CCCS[Si](C)(C)C(C)(C)C)OC", "name": "3-(tert-Butyldimethylsilylthio)propyldimethoxymethylsilane", "bp (°C)": "289.9", "via": "eChemPortal"}
{"smiles": "COC(=O)Oc1ccc(C)cc1OC", "name": "Carbonic acid, 2-methoxy-4-methylphenyl methyl ester", "bp (°C)": "274.9", "via": "eChemPortal"}
{"smiles": "CCCCCCCC(=O)OCCOc1ccccc1", "name": "Phenoxyethyl caprylate", "bp (°C)": "342", "via": "eChemPortal"}
{"smiles": "CCOC(=O)C[C@H](NCCC[Si](OC)(OC)OC)C(=O)OCC", "name": "Diethyl N-[3-(trimethoxysilyl)propyl]-L-aspartate", "bp (°C)": "264.5", "via": "eChemPortal"}
{"smiles": "C=C(C)C(=O)OC(C(F)(F)F)C(F)(F)F", "bp (°C)": "98.92", "via": "ChemicalBook, eChemPortal"}
{"smiles": "Cc1cc(C)c(O)c(-c2cc(C)cc(C)c2O)c1", "name": "[1,1'-Biphenyl]-2,2'-diol, 3,3',5,5'-tetramethyl-", "bp (°C)": "341", "via": "eChemPortal"}
{"smiles": "CCOC(=O)C1OC1c1ccccc1", "stereo": "stereo not given", "name": "Ethyl 2,3-epoxy-3-phenylpropionate", "bp (°C)": "264.8", "via": "eChemPortal"}
{"smiles": "Fc1c(F)c(F)c2c(c1F)C(F)(F)OC2(F)F", "name": "1,1,3,3,4,5,6,7-Octafluoro-1,3-dihydro-2-benzofuran", "bp (°C)": "128.3", "via": "ChemicalBook"}
{"smiles": "CON=C(C)Cc1c(Cl)cc(Cl)cc1Cl", "name": "1-(2,4,6-Trichlorophenyl)-2-propanone O-methyloxime", "bp (°C)": "280.9", "via": "eChemPortal"}
{"smiles": "CC(O)CN(CCCN(CCCN(C)C)CCCN(C)C)CC(C)O", "stereo": "stereo not given", "bp (°C)": "340", "via": "eChemPortal"}
{"smiles": "CC1(C)C2CC3C1C3(C)C2", "stereo": "stereo not given", "name": "1,3,3-Trimethyltricyclo(2.2.1.02,6)heptane", "bp (°C)": "145", "via": "OCHEM"}
{"smiles": "COC(=O)C(F)(F)C(F)(F)C(F)(F)OC(F)=C(F)F", "name": "Methyl 4-trifluoroethenoxy-2,2,3,3,4,4-hexafluorobutanoate", "bp (°C)": "134", "via": "eChemPortal"}
{"smiles": "CC1CCOCO1", "stereo": "stereo not given", "name": "4-Methyl-1,3-dioxane", "bp (°C)": "114", "via": "OCHEM"}
{"smiles": "CC(C)(C#N)CC1=CCC2CC1C2(C)C", "stereo": "stereo not given", "bp (°C)": "271.2", "via": "eChemPortal"}
{"smiles": "C=COCCCCCCCCCCCCCCCCCC", "name": "Octadecane, 1-(ethenyloxy)-", "bp (°C)": "349.2", "via": "eChemPortal"}
{"smiles": "FC(F)(F)C(F)(F)C1(F)OC(F)(F)C(F)(F)C1(F)F", "stereo": "stereo not given", "name": "Perfluoro-5-(pentafluoroethyl)oxolane", "bp (°C)": "56", "via": "OCHEM"}
{"smiles": "COC(=O)N(OC)c1ccccc1COc1c(C)c(-c2ccccc2)nn1C", "name": "Pyrametostrobin", "bp (°C)": "496", "via": "OCHEM"}
{"smiles": "C=CCCCCCCCC(=O)OC", "name": "methyl 9-decenoate", "bp (°C)": "234.8", "via": "eChemPortal"}
{"smiles": "C=CCCCC=CCOC", "name": "1-Methoxy-2,7-octadiene", "bp (°C)": "173", "via": "eChemPortal"}
{"smiles": "CC(=O)/C=C(\\C)[C@@]12CCC[C@@]3(C)[C@@H]1CC[C@@]3(C)C2", "bp (°C)": "340", "via": "eChemPortal"}
{"smiles": "CC(O)COC(C)CO[C@@H]1C[C@H]2CC[C@]1(C)C2(C)C", "stereo": "stereo in doubt", "bp (°C)": "301.5", "via": "eChemPortal"}
{"smiles": "COC(=O)C(c1ccccc1Oc1cc(Cl)ncn1)C(OC)OC", "stereo": "stereo not given", "bp (°C)": "256", "via": "eChemPortal"}
{"smiles": "CCO[Si](CN1CCOCC1)(OCC)OCC", "name": "Morpholine, 4-[(triethoxysilyl)methyl]-", "bp (°C)": "241.2", "via": "eChemPortal"}
{"smiles": "CCON", "name": "Hydroxylamine, O-ethyl-", "bp (°C)": "68", "via": "eChemPortal"}
{"smiles": "COCCOCc1nc(C(F)(F)F)ccc1C(=O)C1=C(O)C2CCC(C2)C1=O", "stereo": "stereo not given", "name": "Bicyclopyrone", "bp (°C)": "490", "via": "OCHEM"}
{"smiles": "CCCCCCCCCCCCCCCCOC(=O)c1cc(C(C)(C)C)c(O)c(C(C)(C)C)c1", "name": "Hexadecyl 3,5-di-tert-butyl-4-hydroxybenzoate", "bp (°C)": "334.9", "via": "eChemPortal"}
{"smiles": "COCC(CCC(C)C)(COC)C(C)C", "name": "3,3-Bis(methoxymethyl)-2,6-dimethylheptane", "bp (°C)": "224.2", "via": "eChemPortal"}
{"smiles": "C=COCCCCCCCCCCCC", "name": "Dodecane, 1-(ethenyloxy)-", "bp (°C)": "236.8", "via": "eChemPortal"}
{"smiles": "CC(C)(O)C(=O)c1ccc(OCCO)cc1", "name": "2-Hydroxy-1-[4-(2-hydroxyethoxy)phenyl]-2-methylpropan-1-one", "bp (°C)": "331", "via": "eChemPortal"}
{"smiles": "CCCCCC1CCC(c2ccc(OCC)c(F)c2F)CC1", "stereo": "stereo not given", "name": "1-Ethoxy-2,3-difluoro-4-(4-pentylcyclohexyl)benzene", "bp (°C)": "365.2", "via": "eChemPortal"}
{"smiles": "CCCCCCCC(=O)OCC(CCC)CCCCC", "stereo": "stereo not given", "name": "2-Propylheptyl octanoate", "bp (°C)": "319", "via": "eChemPortal"}
{"smiles": "CC(C)CCCCCCCCCCOC(=O)CCCCC(=O)OCCCCCCCCCCC(C)C", "name": "Diisotridecyl adipate", "bp (°C)": "321.1", "via": "eChemPortal"}
{"smiles": "Fc1cc(OC(F)(F)c2c(F)cc(Br)cc2F)cc(F)c1F", "bp (°C)": "296", "via": "eChemPortal"}

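OPERA's authors assembled the values from existing databases and did not measure them anew. A listed value is a point estimate from one report or more. Method, purity and exact conditions of the single measurements are not given. Where a salt, mixture or single isomer is drawn, the source does not say that exactly this form was tested. Some entries may be limits or estimates that an upstream database listed as plain numbers.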